The experiment concerns Aorta. Briefly: Vasorelaxation activity in Wistar rat endothelium-intact aortic ring assessed as inhibition of noradrenaline-induced contraction after 20 mins. It counts as functional, tissue-based.

`CCNC(=O)[C@H]1O[C@@H](n2cnc3c(N)nc(NCCc4ccc(CCC(=O)O)cc4)nc32)[C@H](O)[C@@H]1O` [CGS-21680]: the Activity entry was “Dose-dependent effect”.

These data come from ChEMBL document CHEMBL1141671, “N6-1,3-diphenylurea derivatives of 2-phenyl-9-benzyladenines and 8-azaadenines: synthesis and biological evaluation as allosteric modulators of A2A adenosine receptors” (Eur J Med Chem, 2008).
